Measurements from paper PMC3448668, “Insulin-Like Growth Factor-I E-Peptide Activity Is Dependent on the IGF-I Receptor” (PLoS ONE, 2012).

By UniProt entry, the sequences of proteins in these tests, tags left out. Residues count along the entry.
UniProt P08069, 31-1367: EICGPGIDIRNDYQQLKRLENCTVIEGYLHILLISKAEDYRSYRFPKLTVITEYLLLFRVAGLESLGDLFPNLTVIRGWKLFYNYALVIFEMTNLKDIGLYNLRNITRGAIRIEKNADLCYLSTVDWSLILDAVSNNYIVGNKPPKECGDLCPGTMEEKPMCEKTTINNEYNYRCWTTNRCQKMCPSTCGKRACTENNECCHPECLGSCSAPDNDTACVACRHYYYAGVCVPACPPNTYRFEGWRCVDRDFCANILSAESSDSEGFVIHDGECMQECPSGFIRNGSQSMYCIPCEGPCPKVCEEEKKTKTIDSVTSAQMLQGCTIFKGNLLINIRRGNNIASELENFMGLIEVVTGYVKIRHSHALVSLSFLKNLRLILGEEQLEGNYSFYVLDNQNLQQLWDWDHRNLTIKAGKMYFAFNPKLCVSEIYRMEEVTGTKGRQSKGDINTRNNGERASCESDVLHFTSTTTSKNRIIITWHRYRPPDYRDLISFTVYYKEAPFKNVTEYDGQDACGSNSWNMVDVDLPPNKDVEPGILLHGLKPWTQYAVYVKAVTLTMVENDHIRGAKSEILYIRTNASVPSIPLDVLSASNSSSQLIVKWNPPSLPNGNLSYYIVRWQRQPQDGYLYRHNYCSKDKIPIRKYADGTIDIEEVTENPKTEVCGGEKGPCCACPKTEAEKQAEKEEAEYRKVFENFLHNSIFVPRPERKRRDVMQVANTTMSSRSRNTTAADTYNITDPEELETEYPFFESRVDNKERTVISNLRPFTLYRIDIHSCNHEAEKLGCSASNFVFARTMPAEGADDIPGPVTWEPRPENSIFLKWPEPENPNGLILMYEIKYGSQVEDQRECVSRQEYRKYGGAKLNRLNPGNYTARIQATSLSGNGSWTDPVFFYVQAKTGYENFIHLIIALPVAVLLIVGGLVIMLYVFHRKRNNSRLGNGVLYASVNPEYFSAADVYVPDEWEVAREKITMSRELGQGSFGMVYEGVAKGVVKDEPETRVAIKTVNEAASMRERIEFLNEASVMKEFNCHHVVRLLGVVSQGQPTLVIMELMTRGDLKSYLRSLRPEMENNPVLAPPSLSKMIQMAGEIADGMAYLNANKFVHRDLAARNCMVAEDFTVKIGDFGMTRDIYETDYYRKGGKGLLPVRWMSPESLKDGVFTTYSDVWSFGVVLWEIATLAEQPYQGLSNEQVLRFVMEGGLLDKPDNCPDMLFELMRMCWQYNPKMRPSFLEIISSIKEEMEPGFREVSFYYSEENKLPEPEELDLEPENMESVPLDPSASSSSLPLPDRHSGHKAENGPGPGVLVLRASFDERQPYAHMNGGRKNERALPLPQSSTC

Target: T1, IGF-IR phosphorylation in P6 cells overexpressing IGF-IR (Homo sapiens, UniProt P08069)
T1 construct: expressed in transfected cells; host or cells: P6 cells (IGF-IR over-expressing mouse fibroblasts, kept under G418)
Assay: Kinase receptor activation (KIRA) assay
Type: cell-based, mouse
Conditions: 15 min, IGF-I 2 nM and 10 nM, N = 6 wells
Protocol: To determine if E-peptides directly activate IGF-IR, a KIRA assay was preformed as previously described with a few alterations. Briefly, 2.5×10^4 P6 cells, which overexpress IGF-IR (another kind gift from the Baserga lab) were seeded into 96-well plates. They were maintained in growth media supplemented with 200 µg/ml G418. The cells were starved for 6 hours, and then treated with synthetic E-peptides and/or IGF-I for 15 minutes. Cells were lysed and IGF-IR was captured onto an ELISA plate coated with an antibody to IGF-IR (MAB1120, Millipore, Billerica, MA). An HRP-conjugated antibody to phosphorylated tyrosines (16–454, Millipore) and TMB substrate (N301, Thermo Scientific, Rockfort, IL) was used for colorimetric quantification. Absorbance was read at 450 nm via the SpectraMax M5 plate reader (Molecular Devices, Sunnyvale, CA), which served as an indicator of IGF-IR phosphorylation. The IGF-IR localization assay was based on, [75], [76] and preformed as described above, except after treatment and before lysis, cell surface proteins were labeled with 0.3 mg/ml sulfo-NHS-biotin (21217, Thermo Scientific, Rockfort, IL) in PBS for 1 hour at 4°C. Two ELISA plates coated as above were utilized. Half of the cell lysates were transferred to one plate to measure cell-surface IGF-IR, visualized by an HRP-conjugated strepavidin antibody. […]

IGF-I: recombinant human IGF-I (Gemini Bio-Products), positive control
IGF-IR phosphorylation by IGF-I alone (KIRA): stimulated IGF-IR phosphorylation dramatically and significantly
